Laboratory results published in ChEMBL document CHEMBL1137133, “Defining determinant molecular properties for the blockade of the apamin-sensitive SKCa channel in guinea-pig hepatocytes: the influence of polarizability and molecular geometry” (Bioorg Med Chem Lett, 2004).

Assay: Inhibition of apamin-sensitive SKCa channel of guinea-pig hepatocytes
Type: cell-based, Cavia porcellus
Details: hepatocyte

Molecule `CCN(CC)CCCC(C)Nc1ccnc2cc(Cl)ccc12` (stereo unspecified) [CHLOROQUINE] has an IC50 of 200 µM.
